Patent US10150760B2, “Compounds for use in preparing heterocyclic triazole agonists of the APJ receptor” (AMGEN INC., priority 2016, dated 2018)

Chains of the proteins cited; added tags and fusions are not shown. Lines headed by an entry give the natural chain unless they say otherwise; changes in a name come on top.
UniProt P35414: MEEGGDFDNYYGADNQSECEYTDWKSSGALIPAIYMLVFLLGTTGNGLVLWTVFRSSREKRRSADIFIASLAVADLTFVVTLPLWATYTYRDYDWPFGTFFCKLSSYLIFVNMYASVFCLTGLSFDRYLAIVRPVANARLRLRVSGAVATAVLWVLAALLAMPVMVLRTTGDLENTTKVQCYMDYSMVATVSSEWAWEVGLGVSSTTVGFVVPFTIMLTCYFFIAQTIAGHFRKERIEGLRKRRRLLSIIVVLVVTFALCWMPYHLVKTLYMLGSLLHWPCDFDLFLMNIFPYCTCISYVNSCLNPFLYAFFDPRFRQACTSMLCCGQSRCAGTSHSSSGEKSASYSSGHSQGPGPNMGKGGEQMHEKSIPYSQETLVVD

Molecular target: human APJ-AT1R (angiotensin Type 1) double stable CHO cell line (Homo sapiens (Human), UniProt P30556+P35414)
Details: APJ small molecule agonists plus AngII

CCCCc1nc(Cl)c(CO)n1Cc1ccc(-c2ccccc2-c2nn[nH]n2)cc1 [losartan]
effect of losartan on APJ agonist-induced cooperativity in the presence of AngII: relieved this cooperativity
